Measurements reported in PMC2886105, “Assay Strategies for the Discovery and Validation of Therapeutics Targeting Brugia pahangi Hsp90” (PLoS Neglected Tropical Diseases, 2010).

Test system: adult B. pahangi
Assay: Condition and activity of adult B. pahangi worms in vitro
Design: species or system Brugia pahangi

In the case of `COC1=C2C[C@@H](C)C[C@H](OC)[C@H](O)[C@@H](C)/C=C(\C)[C@H](OC(N)=O)[C@@H](OC)/C=C\C=C(/C)C(=O)NC(=CC1=O)C2=O` [GA, geldanamycin], the “concentration of drug required to kill adult Brugia” value is reported as 500 nM.
